The record followed here is patent US9796706B2, “Inhibitors of Jun N-terminal kinase” (IMAGO PHARMACEUTICALS, INC., priority 2009, dated 2017).

By UniProt entry, the sequences of proteins in these tests, tags left out. Chains listed by the source or under a name are the forms on record and can include a tag or linker.
UniProt P53779, whole entry, species assumed: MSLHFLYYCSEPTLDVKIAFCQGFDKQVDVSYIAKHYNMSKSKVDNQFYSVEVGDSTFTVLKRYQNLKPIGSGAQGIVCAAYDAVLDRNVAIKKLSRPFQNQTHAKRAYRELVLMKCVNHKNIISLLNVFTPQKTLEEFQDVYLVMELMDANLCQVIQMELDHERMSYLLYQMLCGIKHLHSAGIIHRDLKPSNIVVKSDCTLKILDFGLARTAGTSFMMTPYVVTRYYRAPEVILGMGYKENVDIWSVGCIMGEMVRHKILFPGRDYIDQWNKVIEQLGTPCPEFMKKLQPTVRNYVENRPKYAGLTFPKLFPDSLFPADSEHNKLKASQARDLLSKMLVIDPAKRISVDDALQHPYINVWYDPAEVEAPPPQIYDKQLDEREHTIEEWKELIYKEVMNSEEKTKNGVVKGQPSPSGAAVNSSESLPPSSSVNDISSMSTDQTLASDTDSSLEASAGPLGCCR
UniProt P45983, other isoform, or with tags, fused parts or gaps isoform P45983-2, species assumed: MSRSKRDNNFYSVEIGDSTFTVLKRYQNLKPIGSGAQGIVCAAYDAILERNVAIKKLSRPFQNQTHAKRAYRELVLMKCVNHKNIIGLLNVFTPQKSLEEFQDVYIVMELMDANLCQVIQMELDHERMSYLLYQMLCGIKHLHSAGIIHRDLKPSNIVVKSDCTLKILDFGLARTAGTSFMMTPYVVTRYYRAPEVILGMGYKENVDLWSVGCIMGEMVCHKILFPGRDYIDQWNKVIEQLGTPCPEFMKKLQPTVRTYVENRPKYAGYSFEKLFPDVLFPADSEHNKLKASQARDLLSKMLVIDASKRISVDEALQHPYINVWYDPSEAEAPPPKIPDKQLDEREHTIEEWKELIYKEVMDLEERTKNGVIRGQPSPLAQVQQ

Test [1] deals with JNK3 (Homo sapiens (Human), UniProt P53779). In words: JNK3 TR-FRET kinase assay (Example 14). Type of test: biochemical. To be noted: procedures of Example 14 (TR-FRET). As for the experimental part:
(§1) 14.3. Active JNK 1, 2 and 3 TR-FRET Assay
(§2) (1) Assay buffer #1 with 0.0025% Tween and 1 mM DTT was prepared using JNK buffer stock solution.
(§3) (2) Assay buffer #2 with 0.025% BSA was prepared using the assay buffer #1.
(§4) (3) Test compound solution preparation: 5× compound solution was prepared using assay buffer #1 with 5% DMSO. The compound solution (10 μl/well) was added to a 384-well plate (Corning, Cat No. 3654).
(§5) (4) aJNK1, 2 or 3 preparation: aJNK stock (100 μg/ml) at −80° C. was thawed on ice and an aJNK (1.6 ng/ml) solution was prepared using assay buffer #2. The aJNK solution (20 μl/well) was added to the plate and the plate was shaken. The enzyme was incubated with the compound at RT for 10 min. (5) ATP/substrate solution preparation: ATP and substrate stocks were thawed on ice. 2.5×ATP/substrate (e.g., 25 μM or 2.5 mM ATP/50 nM EPIW-1) was prepared using assay buffer #1. The ATP/substrate (20 μl/well) was added to the plate and the plate was shaken. The plate was incubated at RT for 15 min. Note: In an exemplary assay, the final ATP concentration was about 1 mM. (6) EDTA preparation: 30 mM EDTA was prepared using 0.5M EDTA stock and assay buffer #1. The EDTA (10 μl/well) was added to the plate to quench the enzyme reaction and the plate was shaken well. (7) Detection reagent preparation: Eu-63 and SA-XL stocks were thawed on ice. 4× Eu-63/SA-XL (2 nM Eu-63/9.4 nM SA-XL) was prepared using JNK detection buffer. The Eu-63/SA-XL solution (20 μl/well) was added to the plate and the plate was shaken. The plate was incubated at RT for 1 hr before reading the plate on LJL using ratiometric method named HTRF.
(§6) 14.4. Coupled JNK 1, 2 and 3 TR-FRET Assay
(§7) (1) Assay buffer with 0.0025% Tween, 0.01% BSA, and 1 mM DTT was prepared using JNK buffer stock solution.
(§8) (2) Test compound solution preparation: 5× compound solution, including EDTA background, was prepared using assay buffer with 5% DMSO. The compound solution (10 μl/well) was added to a 384-well plate (Corning, Cat No. 3654).
(§9) (3) uJNK1,2, or 3 activation reaction preparation: uJNK activation solution was prepared using assay buffer (1.6 ng/ml MKK4, 1.6 ng/ml MKK7, 16 ng/ml uJNK, and 20 uM ATP final). The uJNK activation solution (35 μl/well) was added to the plate, the plate was shaken, and the reaction mixture was incubated with compound at 30° C. for 60 min. (4) c-Jun substrate solution preparation: 50 nM EPIW-1, c-Jun peptide, was prepared using assay buffer (15 nM final). The EPIW-1 solution (15 μl/well) was added to the plate, the plate was shaken and incubated at 30° C. for 60 min. (5) EDTA preparation: 30 mM EDTA was prepared using 0.5M EDTA stock and assay buffer. The EDTA (10 μl/well) was added to the plate to quench the enzyme reaction and the plate was shaken well. (6) Detection reagent preparation: Eu-73 and SA-XL stocks were thawed on ice. 4× Eu-73/SA-XL (2 nM Eu-73/9.4 nM SA-XL) were prepared using JNK detection buffer. The Eu-73/SA-XL solution (20 μl/well) was added to the plate. The plate was shaken and incubated at RT for 1 hr before reading the plate on LJL using ratiometric method named HTRF.
(Time-resolved FRET reads energy transfer from a long-lived donor to a nearby acceptor.)

Test [2] addresses JNK1 (Homo sapiens (Human), UniProt P45983). In words: JNK1 TR-FRET kinase assay (Example 14). Type of test: biochemical. To be noted: procedures of Example 14 (TR-FRET). The protocol:
as §1, §2, §3, §4, §5, §6, §7, §8, §9

By IC50 is commonly meant the concentration at which inhibition is half-maximal. A high value points to weaker potency. Consider `COc1ccc(CC(=O)Nc2ccsc2-c2nc(C)n[nH]2)cc1` [2-(4-methoxyphenyl)-N-(2-(3-methyl-1H-1,2,4-triazol-5-yl)thiophen-3-yl)acetamide], for which the IC50 in test [1] and in test [2] was 0.1 to 10 µM throughout.
Take `COc1ccc(CC(=O)Nc2ccsc2-c2ncco2)cc1` [2-(4-methoxyphenyl)-N-(2-(oxazol-2-yl)thiophen-3-yl)acetamide]: the concentration for half-maximal inhibition (IC50) in test [1] and in test [2] was 0.1 to 10 µM in each case.
In the case of `Cn1ncnc1-c1ncsc1NC(=O)Cc1cccc2cnccc12` [2-(isoquinolin-5-yl)-N-(4-(1-methyl-1H-1,2,4-triazol-5-yl)thiazol-5-yl)acetamide], the IC50 in test [1] and in test [2] was 0.1 to 10 µM throughout.
With `O=C(Cc1ccc2c(c1)OCCO2)Nc1ccsc1-c1ncn[nH]1` [N-(2-(1H-1,2,4-triazol-5-yl)thiophen-3-yl)-2-(2,3-dihydrobenzo[b][1,4]dioxin-6-yl)acetamide], the IC50 in test [1] and in test [2] was 0.1 to 10 µM throughout.
As for `O=C(Cc1cccc2ccccc12)Nc1ccsc1-c1cc[nH]n1` [N-(2-(1H-pyrazol-3-yl)thiophen-3-yl)-2-(naphthalen-1-yl)acetamide], in test [1], the IC50 fell in the range of 0.1 to 10 µM.
As to `Cc1noc(-c2sccc2NC(=O)Cc2cccc3ccccc23)n1` [N-(2-(3-methyl-1,2,4-oxadiazol-5-yl)thiophen-3-yl)-2-(naphthalen-1-yl)acetamide], the 50% inhibitory concentration (IC50) in test [1] and in test [2] was 0.1 to 10 µM in each case.
With `Cc1cc(-c2sccc2NC(=O)Cc2cccc3ccccc23)n[nH]1` [N-(2-(5-methyl-1H-pyrazol-3-yl)thiophen-3-yl)-2-(naphthalen-1-yl)acetamide], the IC50 in test [1] and in test [2] was 0.1 to 10 µM in each case.
For the molecule `COc1ccc(CC(=O)Nc2sccc2-c2nn[nH]n2)cc1` [N-(3-(2H-tetrazol-5-yl)thiophen-2-yl)-2-(4-methoxyphenyl)-acetamide], the IC50 in test [1] and in test [2] was 0.1 to 10 µM each time.
